Our source for the IC50 values is ChEMBL document CHEMBL2040753, “Development of potent and selective inhibitors of aldo-keto reductase 1C3 (type 5 17β-hydroxysteroid dehydrogenase) based on N-phenyl-aminobenzoates and their structure-activity relationships” (J Med Chem, 2012).

This experiment concerns the target Aldo-keto reductase family 1 member B1 (Homo sapiens, UniProt P15121). Briefly: Inhibition of recombinant AKR1B1 assessed as NADPH dependent reduction of DL-glyceraldehyde by fluorescence assay.

Each structure is given as a SMILES string.

With `O=C(O)Cc1nn(Cc2nc3cc(C(F)(F)F)ccc3s2)c(=O)c2ccccc12` [ZOPOLRESTAT], the IC50 amounted to 0.027 µM.
